SMILES strings stand for the structures. pKi: −log10 of the molar value. “And” between values parts separate entries of the source, which are not always exact repeats. Equal entries are not always repeated.

Chains of the proteins cited; added tags and fusions are not shown. Residues count along the entry.
UniProt P36544, 23-502 limits assumed: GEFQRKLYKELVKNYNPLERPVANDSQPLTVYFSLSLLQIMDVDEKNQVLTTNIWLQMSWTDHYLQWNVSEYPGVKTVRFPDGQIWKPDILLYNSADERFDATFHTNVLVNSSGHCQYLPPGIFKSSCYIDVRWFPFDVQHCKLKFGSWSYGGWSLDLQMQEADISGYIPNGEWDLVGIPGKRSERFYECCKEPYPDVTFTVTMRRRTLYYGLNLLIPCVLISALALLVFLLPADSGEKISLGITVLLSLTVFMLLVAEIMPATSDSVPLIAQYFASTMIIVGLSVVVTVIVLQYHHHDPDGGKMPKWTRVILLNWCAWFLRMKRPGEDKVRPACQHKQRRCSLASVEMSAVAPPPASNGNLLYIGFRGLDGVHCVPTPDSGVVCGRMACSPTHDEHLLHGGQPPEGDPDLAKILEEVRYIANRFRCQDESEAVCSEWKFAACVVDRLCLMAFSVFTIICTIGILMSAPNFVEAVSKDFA

This assay has as its target Neuronal acetylcholine receptor subunit alpha-7 (Homo sapiens, UniProt P36544).
On to `O=C(NC1C2CCN(CC2)C12CC2)c1cc2cc(C(F)(F)F)ccc2s1` (single isomer, unassigned), for which the pKi – broadly, −log10 of the Ki, conventionally taken in molar units – is 4.80 and < 4.52. Under `CC1(C)[C@H](NC(=O)c2cc3cccc(C4CCOCC4)c3s2)C2CCN1CC2` stands 5.96; under `CC1(C)[C@H](NC(=O)c2ccc3cc[nH]c3c2)C2CCN1CC2`, 5.96; under `O=C(NC1C2CCN(CC2)C12CC2)c1cc2cc(Cl)ccc2s1` (single isomer, unassigned), 5.51 and 5.48.

The compound `CN(C)c1cccc2cc(C(=O)N[C@@H]3C4CCN(CC4)C34CC4)sc12` had a pKi of 6.11. Take `Cc1cc2cc(C(=O)N[C@@H]3C4CCN(CC4)C3(C)C)ccc2o1`: the pKi is 5.89. `Cc1ccc2cc(C(=O)N[C@H]3C4CCN(CC4)C3(C)C)sc2c1` had a negative-log Ki (pKi) of 4.85. For `CC1(C)[C@H](NC(=O)c2noc3ccccc23)C2CCN1CC2` the value was 4.92. In turn, `COc1cc2sc(C(=O)N[C@@H]3C4CCN(CC4)C34CC4)cc2cc1F` showed a pKi of 6.25. For `Cc1cc2ccc(C(=O)N[C@@H]3C4CCN(CC4)C3(C)C)cc2s1` the value was 6.24; for `CC1(C)[C@H](NC(=O)c2cc3cc(F)c(Cl)c(F)c3s2)C2CCN1CC2`, 5.96; for `Cn1nc2c(c1-c1cc(F)c(F)c(F)c1)C[C@@H]1CCC[C@H]2N1C(=O)c1cnn2ccncc12`, 5.44. In turn, `CC1(C)[C@H](NC(=O)c2cc3ccc(Cl)c(Cl)c3s2)C2CCN1CC2` gave a pKi of 6.96. Under `COc1cc2sc(C(=O)N[C@@H]3C4CCN(CC4)C3(C)C)cc2cc1F` stands 5.80; under `CC1(C)[C@H](NC(=O)c2ccc3cc(Cl)sc3c2)C2CCN1CC2`, 6.26. In turn, `CC1(C)[C@H](NC(=O)c2cc3ccccc3cn2)C2CCN1CC2` had a pKi of 6.28.

Turning to `CC1(C)[C@H](NC(=O)c2cc3ccc(C(F)(F)F)cc3s2)C2CCN1CC2`, the pKi is 4.64. `CC1(C)[C@H](NC(=O)c2cc3cc(F)ccc3s2)C2CCN1CC2` gave a negative logarithm of the Ki (pKi) of 6.39. In the case of `Cc1coc2ccc(C(=O)N[C@@H]3C4CCN(CC4)C3(C)C)cc12`, the pKi was 5.96. `CC1(C)[C@H](NC(=O)c2ccc3ccoc3c2)C2CCN1CC2` gave a pKi of 5.51. Compound `O=C(N[C@@H]1C2CCN(CC2)C12CC2)c1cc2ccc(C3CCOCC3)cc2s1` gave a pKi of 4.70. With `Cc1nc2ccc(C(=O)N[C@@H]3C4CCN(CC4)C34CC4)cc2o1`, the pKi was 4.82. In the case of `CC(C)(O)c1cccc2cc(C(=O)N[C@@H]3C4CCN(CC4)C34CC4)sc12`, the pKi was 5.85. In turn, `O=C(N[C@@H]1C2CCN(CC2)C12CC2)c1ccc2cccnc2c1` showed a pKi of 4.92. Compound `CC1(C)[C@H](NC(=O)c2cc3cc(F)c(Cl)cc3s2)C2CCN1CC2` had a negative logarithm of the Ki (pKi) of 6.12. In turn, `O=C(N[C@@H]1C2CCN(CC2)C12CC2)c1cc2ccc(C3CC3)c(F)c2s1` gave a pKi of 5.92. As to `CC1(C)[C@H](NC(=O)c2cc3ccc(N)cc3s2)C2CCN1CC2`, the negative logarithm of the Ki (pKi) is 6.26.

The compound `Cc1ccc2sc(C(=O)N[C@@H]3C4CCN(CC4)C3(C)C)cc2c1` showed a negative-log Ki (pKi) of 5.46. `CC(C)Oc1cccc2cc(C(=O)N[C@@H]3C4CCN(CC4)C3(C)C)sc12` gave a pKi of 6.35. For the compound `COCc1cccc2cc(C(=O)N[C@@H]3C4CCN(CC4)C3(C)C)sc12`, the negative-log Ki (pKi) is 6.81. `CC1(C)[C@H](NC(=O)c2cc3ccc(Br)cc3s2)C2CCN1CC2` had a pKi of 6.34. For `CC1(C)[C@H](NC(=O)c2cc3cc(C4CC4)ccc3s2)C2CCN1CC2` the value was 5.92. On to `CC1(C)[C@H](NC(=O)c2cc3ccoc3cn2)C2CCN1CC2`, for which the negative-log Ki (pKi) was 6.41. The compound `O=C(N[C@@H]1C2CCN(CC2)C12CC2)c1cc2ccc(F)c(Cl)c2s1` gave a negative-log Ki (pKi) of 6.70. In turn, `CC1(C)[C@H](NC(=O)c2cc3ccc(Cl)c(C(F)(F)F)c3s2)C2CCN1CC2` gave a pKi of 6.30. Regarding `CC(C)(C)c1cccc2cc(C(=O)N[C@@H]3C4CCN(CC4)C34CC4)sc12`, the negative-log Ki (pKi) was 6.32.

Compound `O=C(N[C@@H]1C2CCN(CC2)C12CC2)c1ccc2c(c1)OCCO2` gave a pKi of 5.52. In turn, `CC1(C)C(NC(=O)c2ccc(Cl)cc2)C2CCN1CC2` (stereo unspecified) showed a pKi of 5.41. `O=C(N[C@@H]1C2CCN(CC2)C12CC2)c1cc2cccnc2s1` gave a pKi of 5.82.

The compound `CN(C)c1cccc2cc(C(=O)N[C@@H]3C4CCN(CC4)C3(C)C)sc12` had a negative-log Ki (pKi) of 5.80. For the compound `CC1(C)[C@H](NC(=O)c2nc3ccccc3[nH]2)C2CCN1CC2`, the negative logarithm of the Ki (pKi) is 4.82.

For the compound `CC1(C)[C@@H](NC(=O)c2cc3cccc(C(F)(F)F)c3s2)C2CCN1CC2`, the negative-log Ki (pKi) is 4.85. `O=C(N[C@@H]1C2CCN(CC2)C12CC2)c1nc2ccccc2s1` showed a negative logarithm of the Ki (pKi) of 5.96. In turn, `CC1(C)[C@H](NC(=O)c2nc3ccccc3s2)C2CCN1CC2` gave a negative logarithm of the Ki (pKi) of 5.52. In the case of `Cc1ccc2cc(C(=O)N[C@@H]3C4CCN(CC4)C3(C)C)sc2c1Cl`, the pKi was 6.74. Turning to `CC1(C)[C@H](NC(=O)c2ccc3c(c2)OCCO3)C2CCN1CC2`, the negative-log Ki (pKi) was 4.92. For `N#Cc1cccc2cc(C(=O)N[C@@H]3C4CCN(CC4)C34CC4)sc12`, the negative logarithm of the Ki (pKi) was 6.96. As for `CC(C)(O)c1cccc2cc(C(=O)N[C@@H]3C4CCN(CC4)C3(C)C)sc12`, the pKi was 5.66. On to `O=C(N[C@@H]1C2CCN(CC2)C12CC2)c1cc2cc(F)c(F)cc2s1`, for which the negative logarithm of the Ki (pKi) is 5.96. Under `CC1(C)[C@H](NC(=O)c2cc3c(cn2)OCCO3)C2CCN1CC2` stands 5.02; under `CC1(C)[C@H](NC(=O)c2cc3cccc(C4CC4)c3s2)C2CCN1CC2`, 6.85; under `Cn1c(C(=O)N[C@@H]2C3CCN(CC3)C2(C)C)cc2ccccc21`, 5.27. As to `CC1(C)[C@H](NC(=O)c2cc3ccc(Cl)c(F)c3s2)C2CCN1CC2`, the pKi was 6.47. Regarding `COc1c(F)ccc2cc(C(=O)N[C@@H]3C4CCN(CC4)C34CC4)sc12`, the pKi is 6.80. Under `CC1(C)[C@H](NC(=O)c2cc3ccc4c(c3s2)OCCC4)C2CCN1CC2` stands 6.09; under `CC1(C)[C@H](NC(=O)c2cc3cccc(-c4nccs4)c3s2)C2CCN1CC2`, 6.49; under `Cc1nc2cc(C(=O)N[C@@H]3C4CCN(CC4)C34CC4)ccc2o1`, 5.37. Take `Cn1ccc2ccc(C(=O)N[C@@H]3C4CCN(CC4)C34CC4)cc21`: the pKi was 5.82. For `COc1ccc2cc(C(=O)N[C@H]3C4CCN(CC4)C3(C)C)sc2c1`, the negative-log Ki (pKi) is 4.85.

Compound `COc1ccc2cc(C(=O)N[C@@H]3C4CCN(CC4)C3(C)C)sc2c1` showed a negative logarithm of the Ki (pKi) of 6.48. For `CC1(C)[C@H](NC(=O)c2n[nH]c3ccccc23)C2CCN1CC2` the value was 6.24.

These data come from ChEMBL document CHEMBL5726183, “Geminal substituted quinuclidine amide compounds as agonists of α-7 nicotonic acetylcholine receptors” (2019).
